The target of the assay is human 11β-HSD1 (Homo sapiens, UniProt P28845). Briefly: biochemical. To be noted: 1.5 h, read-out: Biological Test Example 2 Average % inhibition at 100 nm.

Protein sequences, listed by entry. Tags and fused reporters are not part of them. Lines headed by an entry give the natural chain unless they say otherwise; changes in a name come on top.
UniProt P28845: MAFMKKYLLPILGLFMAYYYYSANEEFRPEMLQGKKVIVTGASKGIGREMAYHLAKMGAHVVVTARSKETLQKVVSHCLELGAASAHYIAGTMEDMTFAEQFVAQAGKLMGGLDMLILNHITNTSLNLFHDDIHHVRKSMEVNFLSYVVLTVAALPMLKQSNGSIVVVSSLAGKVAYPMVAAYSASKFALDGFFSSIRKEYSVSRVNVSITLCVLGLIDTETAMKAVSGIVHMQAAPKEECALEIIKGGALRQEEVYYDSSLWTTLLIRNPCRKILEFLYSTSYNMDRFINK

For orientation: inhibition means the percentage by which the read-out fell short of the control. Consider `CC(C)(C)OC(=O)N(CCO)[C@@H]1CCN(C(=O)O[C@H]2C3CC4CC2C[C@](C(N)=O)(C4)C3)C1` [Example 28, (R)-(1-carbamoyl-4-adamantyl) 3-(tert-butoxycarbonyl(2-hydroxyethyl)amino)pyrrolidine-1-carboxylate], for which the inhibition at 0.1 µM worked out at 86.1%.

The record behind these values is patent publication US8828985B2, “Carbamate and urea inhibitors of 11-beta-hydroxysteroid dehydrogenase 1” (Vitae Pharmaceuticals, Inc., priority 2008, dated 2014).
